Experimental data reported in PubChem BioAssay (NCI).
Where “and” joins values, the source holds several entries; their conditions need not be identical. Identical values can stand only once.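 Values below derive from 48-hour exposures of cells grown in 96-well plates, with endpoints linearly interpolated between the two concentrations bracketing the appropriate inhibition level. GI50 marks 50% less growth. TGI is the concentration that stops growth completely.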

What was measured:
Test in all cases: NCI tumour cell line growth inhibition, 48 h
[1] = test system: A498 renal
[2] = test system: A549 NSCLC
[3] = test system: CAKI-1 renal
[4] = test system: CCRF-CEM leukemia
[5] = test system: COLO 205 colon
[6] = test system: DLD-1 colon
[7] = test system: DMS 273 small cell lung
[8] = test system: EKVX NSCLC
[9] = test system: HCC-2998 colon
[10] = test system: HCT-116 colon
[11] = test system: HCT-15 colon
[12] = test system: HL-60(TB) leukemia
[13] = test system: HOP-18 NSCLC
[14] = test system: HOP-62 NSCLC
[15] = test system: HOP-92 NSCLC
[16] = test system: HT29 colon
[17] = test system: IGROV1 ovarian
[18] = test system: K-562 leukemia
[19] = test system: KM12 colon
[20] = test system: KM20L2 colon
[21] = test system: LOX IMVI melanoma
[22] = test system: M19-MEL melanoma
[23] = test system: MALME-3M melanoma
[24] = test system: MCF7 breast
[25] = test system: MOLT-4 leukemia
[26] = test system: NCI-H226 lung
[27] = test system: NCI-H23 lung
[28] = test system: NCI-H322M lung
[29] = test system: NCI-H460 lung
[30] = test system: NCI-H522 lung
[31] = test system: NCI/ADR-RES ovarian
[32] = test system: OVCAR-3 ovarian
[33] = test system: OVCAR-4 ovarian
[34] = test system: OVCAR-5 ovarian
[35] = test system: OVCAR-8 ovarian
[36] = test system: P388 leukemia
[37] = test system: P388/ADR leukemia
[38] = test system: RPMI-8226 leukemia
[39] = test system: RXF 393 renal
[40] = test system: SF-268 CNS
[41] = test system: SF-295 CNS
[42] = test system: SF-539 CNS
[43] = test system: SK-MEL-2 melanoma
[44] = test system: SK-MEL-28 melanoma
[45] = test system: SK-MEL-5 melanoma
[46] = test system: SK-OV-3 ovarian
[47] = test system: SN12C renal
[48] = test system: SN12K1 renal
[49] = test system: SNB-19 CNS
[50] = test system: SNB-75 CNS
[51] = test system: SNB-78 CNS
[52] = test system: SW-620 colon
[53] = test system: U251 CNS
[54] = test system: UACC-257 melanoma
[55] = test system: UACC-62 melanoma
[56] = test system: UO-31 renal
[57] = test system: XF 498 CNS

Q: What does the source list for `CCC(O)(C(=O)OCC1=CC[N+]2([O-])CC[C@@H](OC(=O)Nc3ccccc3)C12)c1ccc(Cl)cc1` (stereo not given in full)?
A: TGI [1]: > 100 µM; TGI [2]: > 100 µM; TGI [3]: > 100 µM; TGI [4]: > 100 µM; TGI [5]: > 100 µM; TGI [6]: > 100 µM; TGI [7]: > 100 µM; TGI [8]: > 100 µM; TGI [9]: > 100 µM; TGI [10]: > 100 µM; TGI [11]: > 100 µM; TGI [12]: > 100 µM and 19.6 µM; TGI [13]: > 100 µM; TGI [14]: > 100 µM; TGI [15]: > 100 µM; TGI [16]: > 100 µM; TGI [17]: > 100 µM; TGI [18]: > 100 µM; TGI [19]: > 100 µM; GI50 [20]: 55 µM; TGI [20]: > 100 µM; TGI [21]: > 100 µM; TGI [22]: > 100 µM; TGI [23]: > 100 µM; TGI [24]: > 100 µM; TGI [25]: > 100 µM; TGI [26]: > 100 µM; TGI [27]: > 100 µM; TGI [28]: > 100 µM; TGI [29]: > 100 µM; TGI [30]: 59.9 µM and 48.9 µM; TGI [31]: > 100 µM; TGI [32]: > 100 µM; TGI [33]: > 100 µM; TGI [34]: > 100 µM; TGI [35]: > 100 µM; TGI [36]: > 100 µM; TGI [37]: > 100 µM; TGI [38]: > 100 µM; GI50 [39]: > 100 µM; TGI [39]: > 100 µM; TGI [40]: > 100 µM; TGI [41]: > 100 µM; TGI [42]: > 100 µM; TGI [43]: > 100 µM; TGI [44]: > 100 µM; TGI [45]: > 100 µM; TGI [46]: > 100 µM; TGI [47]: > 100 µM; TGI [48]: > 100 µM; TGI [49]: > 100 µM; TGI [50]: > 100 µM and 91.4 µM; GI50 [51]: > 100 µM; TGI [51]: > 100 µM; TGI [52]: > 100 µM; TGI [53]: > 100 µM; TGI [54]: > 100 µM; TGI [55]: > 100 µM; TGI [56]: > 100 µM; TGI [57]: > 100 µM
